This series can be described thus: Stability in vivo.

Regarding `CC[C@H](C)[C@H](NC(=O)[C@@H](NC(=O)[C@H](C)NC(=O)[C@H](CCC(N)=O)NC(=O)[C@H](C)NC(=O)[C@@H](NC(=O)[C@H](CC(N)=O)NC(=O)[C@H](CO)NC(=O)[C@@H]1CCCN1C(=O)[C@H](C)NC(=O)[C@H](CCC(=O)O)NC(=O)[C@H](CC(=O)O)NC(=O)[C@H](Cc1ccc(O)cc1)NC(=O)[C@H](CCCCN)NC(=O)[C@H](CC(C)C)NC(=O)[C@H](Cc1ccccc1)NC(=O)[C@H](CCC(=O)O)NC(=O)[C@H](CCSC)NC(=O)[C@@H](NC(=O)[C@H](Cc1ccc(O)cc1)NC(=O)[C@H](CO)NC(=O)[C@H](C)NC(=O)[C@H](CCCNC(=N)N)NC(=O)CNC(=O)[C@H](CCCCN)NC(=O)[C@@H](NC(=O)[C@H](CC(C)C)NC(=O)[C@@H](N)CO)[C@@H](C)O)[C@@H](C)O)C(C)C)C(C)C)C(=O)N[C@@H](CCC(=O)O)C(=O)N[C@@H](C)C(=O)N[C@@H](CCCNC(=N)N)C(=O)NCC(=O)N[C@@H](CCCCN)C(=O)O`, the stability in vivo result was “quite stable in vivo”.

The values are drawn from US8080632B2, “Peptide mimics of melanocyte stimulating hormone” (The Feinstein Institute for Medical Research, priority 2005, dated 2011).
